Measured values taken from ChEMBL document CHEMBL1134615, “Structure-based design and synthesis of potent matrix metalloproteinase inhibitors derived from a 6H-1,3,4-thiadiazine scaffold” (J Med Chem, 2001).

Biological target: T1, Interstitial collagenase (Homo sapiens, UniProt P03956)
T1 sequence (P03956 whole entry): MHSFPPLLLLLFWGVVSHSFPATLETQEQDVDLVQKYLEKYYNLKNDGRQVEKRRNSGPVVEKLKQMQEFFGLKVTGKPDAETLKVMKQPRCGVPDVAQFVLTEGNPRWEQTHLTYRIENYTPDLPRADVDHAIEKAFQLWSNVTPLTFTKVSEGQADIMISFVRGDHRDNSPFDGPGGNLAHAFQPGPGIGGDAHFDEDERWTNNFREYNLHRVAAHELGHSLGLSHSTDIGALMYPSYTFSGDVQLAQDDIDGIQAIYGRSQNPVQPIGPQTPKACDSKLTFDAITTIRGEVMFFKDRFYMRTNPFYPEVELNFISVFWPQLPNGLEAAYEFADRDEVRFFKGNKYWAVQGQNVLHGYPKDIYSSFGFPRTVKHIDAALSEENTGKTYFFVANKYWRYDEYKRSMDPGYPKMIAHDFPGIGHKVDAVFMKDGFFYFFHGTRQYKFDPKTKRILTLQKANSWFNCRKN
Assay: In vitro inhibitory activity against full-length human matrix metalloprotease-1

Ki: 1040 nM
SMILES: C[C@H](NS(=O)(=O)c1cccs1)C(=O)NC1=NN=C(c2ccc(Cl)cc2)CS1
